{"sequences": {"note": "Chains of the proteins cited; added tags and fusions are not shown.", "UniProt Q96LB1, whole entry": "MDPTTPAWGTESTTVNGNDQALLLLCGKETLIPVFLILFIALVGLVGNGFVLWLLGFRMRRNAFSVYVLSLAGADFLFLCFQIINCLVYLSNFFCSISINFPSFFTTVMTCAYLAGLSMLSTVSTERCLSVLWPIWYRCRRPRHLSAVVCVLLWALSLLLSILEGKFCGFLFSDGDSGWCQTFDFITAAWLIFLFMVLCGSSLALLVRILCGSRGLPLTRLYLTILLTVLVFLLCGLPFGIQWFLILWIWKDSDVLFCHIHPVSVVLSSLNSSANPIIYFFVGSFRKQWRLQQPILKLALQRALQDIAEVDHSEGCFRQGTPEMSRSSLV"}, "source": "patent EP4834881A1", "about": "“QUINOLONE COMPOUNDS AND USE THEREOF” (dated 2026)", "key": {"[1]": {"tested_on": "BALB/c mice", "assay": "Atopic dermatitis model: MC903 (calcipotriol) on right ear, ear thickness", "conditions": "50 mg/kg BID p.o., mean ± SEM", "experimental": "(§1) Experimental animals: BALB/c mice, from Guangdong Vital River Laboratory Animal Technology Co., Ltd.\nMC903 (calcipotriol) (Supplier: TargetMol, Lot No.: 235760) was applied to the right ear of mice, once a day, for 14 consecutive days.\nThe animals were randomly divided into 6 groups before induction on D1. The model control group was administered with vehicle alone under the same conditions. Administration was carried out according to the following groups:\nDuring the experiment period, the thickness of the right ear of the mice was measured. […] The data are presented as mean ± standard error of the mean (SEM)."}, "[2]": {"tested_on": "BALB/c mice", "assay": "Psoriasis model: imiquimod cream on mouse back, PASI score", "conditions": "4mg/g Topical application, once daily, mean ± SEM", "experimental": "as §1\nThe clinical severity of psoriasis was assessed using the Psoriasis Area and Severity Index (PASI) score. The PASI scoring criteria for mice are as follows:\nThe hair on the back of the mice was shaved, and the application area was marked with a marker pen. Imiquimod cream (Supplier: Sichuan Mingxin Pharmaceutical, Lot No.: 24054002) was applied to the back of the mice for several consecutive days to establish a mouse model of psoriasis. Before daily application, the residual cream was removed using pure water.\nAdministration was initiated on the day of grouping, which was designated as D1, and was performed once daily for 8 consecutive days. The normal control group and the model control group were administered with vehicle alone under the same conditions. Mice were scored according to the PASI (Psoriasis area and severity index). The administration regimen for the mouse psoriasis model was as follows: […]"}, "[3]": {"tested_on": "BALB/c mice", "assay": "Urticaria model: anti-dinitrophenyl antibody sensitization and dinitrofluorobenzene challenge; number of wheals, serum IgE and histamine (ELISA)", "conditions": "once daily, 6 days, mean ± SEM", "experimental": "Experimental animals: BALB/c mice, from Hangzhou Ziyuan Laboratory Animal Technology Co., Ltd\nAfter random grouping, the back of the mice was shaved in advance, with a shaving area of about 2 cm × 2 cm. Except for the normal control group, mice in the remaining groups were sensitized via tail vein injection of an anti-dinitrophenyl monoclonal antibody (Supplier: Sigma-Aldrich, Lot No.: 0000241402) (0.2 ng/mL) at a dose of 0.5 mL per mouse. After 24 h, the mice in each sensitization modeling group were challenged by topically applying 50 µL of 0.15% dinitrofluorobenzene (Supplier: Shanghai Macklin, Lot No.: C14969320) to the dorsal side of both ears. The normal control group was injected and topically applied with normal saline under the same conditions.\nThe administration regimen for the mouse urticaria model was as follows (the normal control group and the model control group were administered with vehicle alone under the same conditions) (once daily):\nMouse IgE ELISA detection kit: purchased from Shanghai Enzyme-linked Biotechnology Co., Ltd., Lot No.: ml1037602.\nMouse histamine ELISA detection kit: purchased from Shanghai Enzyme-linked Biotechnology Co., Ltd., Lot No.: ml1001877.\nMicroplate reader, manufacturer BioTek, model: Epoch."}, "[4]": {"molecular_target": "human MRGPRX2 (Homo sapiens, UniProt Q96LB1)", "assay": "In vitro target binding assay: BRET between MRGPRX2-Nluc and Venus-β-arrestin1 in transfected HEK-293T cells, antagonist mode against agonist R-ZINC-3573 (EC80)", "conditions": "antagonism of agonist R-ZINC-3573 at EC80, net BRET"}}, "data": [{"molecule": "COc1c(-c2ccc(S(=O)(=O)N3CC(F)(F)C3)cc2)c(F)cc2c(=O)c(C(=O)O)cn(C3CC3)c12", "values": [{"measurement": "Right Ear Thickness of Mice", "setting": "[1]; D2", "value": "0.19±0.03", "unit": "mm"}, {"measurement": "Right Ear Thickness of Mice", "setting": "[1]; D4", "value": "0.28 ± 0.04", "unit": "mm"}, {"measurement": "Right Ear Thickness of Mice", "setting": "[1]; D6", "value": "0.40 ± 0.04", "unit": "mm"}, {"measurement": "Right Ear Thickness of Mice", "setting": "[1]; D8", "value": "0.48 ± 0.04", "unit": "mm"}, {"measurement": "Right Ear Thickness of Mice", "setting": "[1]; D10", "value": "0.52 ± 0.04", "unit": "mm"}, {"measurement": "Right Ear Thickness of Mice", "setting": "[1]; D12", "value": "0.60 ± 0.04", "unit": "mm"}, {"measurement": "Right Ear Thickness of Mice", "setting": "[1]; D14", "value": "0.57 ± 0.02", "unit": "mm"}, {"measurement": "PASI score", "setting": "[2]; D1", "value": 0}, {"measurement": "PASI score", "setting": "[2]; D2", "value": "0.5±0.3"}, {"measurement": "PASI score", "setting": "[2]; D3", "value": "1.7±0.3"}, {"measurement": "PASI score", "setting": "[2]; D4", "value": "2.8±0.3"}, {"measurement": "PASI score", "setting": "[2]; D5", "value": "3.6±0.4"}, {"measurement": "Histamine Level", "setting": "[3]; 4mg/kg Topical application", "value": "6.3 ± 1.0", "unit": "ng/mL"}, {"measurement": "IgE Level", "setting": "[3]; 4mg/kg Topical application", "value": "12.2 ± 2.0", "unit": "µg/mL"}, {"measurement": "Histamine Level", "setting": "[3]; 25mg/kg Oral", "value": "5.8 ± 1.0", "unit": "ng/mL"}, {"measurement": "IgE Level", "setting": "[3]; 25mg/kg Oral", "value": "11.5 ± 2.0", "unit": "µg/mL"}, {"measurement": "IC50", "setting": "[4]", "value": "100 to 1000", "unit": "nM"}]}]}
